From US7678787B2, “Pyrrolobenzodiazepine pyridine carboxamides and derivatives as follicle-stimulating hormone receptor antagonists” (Wyeth, priority 2005, dated 2010)

Chains of the proteins cited; added tags and fusions are not shown. Residues count along the entry.
UniProt P16473, 21-764: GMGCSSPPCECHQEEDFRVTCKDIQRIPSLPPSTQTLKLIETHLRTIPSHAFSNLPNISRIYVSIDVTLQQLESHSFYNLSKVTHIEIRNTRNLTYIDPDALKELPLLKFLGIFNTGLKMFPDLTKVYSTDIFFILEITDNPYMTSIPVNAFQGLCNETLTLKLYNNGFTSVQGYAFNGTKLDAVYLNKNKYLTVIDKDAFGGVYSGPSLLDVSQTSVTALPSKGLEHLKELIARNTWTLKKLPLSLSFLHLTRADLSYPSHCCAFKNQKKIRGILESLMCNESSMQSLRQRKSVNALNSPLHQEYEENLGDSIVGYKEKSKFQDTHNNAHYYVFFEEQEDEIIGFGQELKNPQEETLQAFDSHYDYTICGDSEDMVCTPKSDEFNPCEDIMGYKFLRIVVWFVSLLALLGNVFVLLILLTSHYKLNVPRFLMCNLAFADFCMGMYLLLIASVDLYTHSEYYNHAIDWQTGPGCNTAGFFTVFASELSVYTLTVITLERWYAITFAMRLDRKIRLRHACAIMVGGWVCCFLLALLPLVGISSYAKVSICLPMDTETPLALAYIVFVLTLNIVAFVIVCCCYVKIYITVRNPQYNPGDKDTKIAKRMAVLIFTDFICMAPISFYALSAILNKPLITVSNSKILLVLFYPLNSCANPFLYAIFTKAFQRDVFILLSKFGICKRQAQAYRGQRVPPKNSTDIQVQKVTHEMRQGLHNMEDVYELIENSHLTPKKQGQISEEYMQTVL

Experiments:
Format in all cases: cell-based
hFSH-R = target: T1, hFSH-R (Homo sapiens, UniProt P23945); test: cAMP accumulation (RIA) in CHO-3D2 cells (hFSH-R), hFSH-induced; conditions: agonist mode, four-parameter logistic equation
T1 construct: expressed in transfected cells; host or cells: CHO-3D2 cells (CHO-K1 parental line)
T1 sequence (P23945 18-695): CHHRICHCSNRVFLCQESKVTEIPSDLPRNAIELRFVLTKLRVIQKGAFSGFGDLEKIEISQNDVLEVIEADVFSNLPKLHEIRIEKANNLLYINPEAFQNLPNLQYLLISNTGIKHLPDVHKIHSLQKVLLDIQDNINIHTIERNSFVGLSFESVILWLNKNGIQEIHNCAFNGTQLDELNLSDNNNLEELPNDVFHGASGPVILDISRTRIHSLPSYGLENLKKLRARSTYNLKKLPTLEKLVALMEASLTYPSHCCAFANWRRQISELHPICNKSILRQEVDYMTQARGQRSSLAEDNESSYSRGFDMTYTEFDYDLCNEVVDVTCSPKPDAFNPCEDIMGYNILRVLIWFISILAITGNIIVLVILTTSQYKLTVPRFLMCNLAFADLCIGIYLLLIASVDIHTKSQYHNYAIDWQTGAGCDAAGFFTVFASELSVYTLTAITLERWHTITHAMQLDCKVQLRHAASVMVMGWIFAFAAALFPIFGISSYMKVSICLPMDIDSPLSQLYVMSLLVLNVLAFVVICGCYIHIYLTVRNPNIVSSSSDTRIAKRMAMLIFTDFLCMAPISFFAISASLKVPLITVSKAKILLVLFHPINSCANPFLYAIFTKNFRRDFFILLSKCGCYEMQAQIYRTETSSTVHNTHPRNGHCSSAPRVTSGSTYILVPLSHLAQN
Experimental: IN VITRO BIO-ASSAY OF AGONISTS AND ANTAGONISTS TO THE FSH RECEPTOR. SELECTIVITY AND DEPENDENCY OF AGONISTS AND ANTAGONISTS TO THE FSH RECEPTOR
This assay was used to verify in vitro potency, efficacy, selectivity and receptor dependency of hits found to inhibit an FSH-R-CRE-luciferase driven reporter.
Compound Vehicle: Stock compounds were solubilized in 100% DMSO (Sigma-Aldrich Chemical Co., St. Louis, Mo.) at a concentration of 30 mM. The compounds subsequently were diluted in sterile assay medium consisting of Opti-MEM® I (Invitrogen/Life Technologies, Carlsbad, Calif.) with 0.1% (w/v) BSA (Sigma-Aldrich) prior to use in the bio-assay. The final concentration of DMSO in the assay was 0.1%. […]
Assay: On the day of the assay, cells were washed three times with 100 μl/well of assay medium consisting of Opti-MEM® I (Invitrogen/Life Technologies) with 0.1% (w/v) BSA (Sigma-Aldrich). […] Reactions were terminated by the addition of 50 μl of 0.2N hydrochloric acid to each well and cAMP-accumulation was measured by radioimmunoassay (RIA) using a commercially available kit (Amersham Biosciences, Piscataway, N.J.).
All test compounds were evaluated in a dose-response paradigm ranging from 0.01 to 30 μM. Controls and test compounds were evaluated in quadruplicate in a 96-well format. […] The ability of the compounds to inhibit the cAMP-accumulation induced by hFSH was evaluated by RIA.
In every assay the EC20 concentration was calculated and only those experiments in which the EC20 concentrations were equal to 1.85±0.4 ng/mL were accepted as valid. […]
cAMP accumulation is expressed as fmol/ml. cAMP accumulation in the agonist mode, or the ability of the compound to inhibit hFSH-, hTSH-, or forskolin-induced cAMP-accumulation in the antagonist mode, was compared to the appropriate negative and positive controls. Data were analyzed by one-way analysis of variance and significant differences between treatments and control determined by Least Significant Difference test. […]

human FSH receptor = target: T2, human FSH receptor (Homo sapiens, UniProt P23945); test: FSH receptor-dependent CRE-luciferase reporter gene assay (CHO FSH-R 6CRE-Luc cells); conditions: positive control concentration
T2 construct: host or cells: CHO-K1 (CHO FSH-R 6CRE-Luc, 1D7 cells)
T2 sequence (P23945 18-695): T1 sequence (P23945 18-695)
Text: FOLLICLE-STIMULATING HORMONE RECEPTOR-DEPENDENT CRE-LUCIFERASE REPORTER GENE ASSAY FOR THE IDENTIFICATION OF FOLLICLE-STIMULATING HORMONE (FSH) ANTAGONISTS
A Chinese hamster ovarian cell line that stably produces the human FSH receptor and a luciferase reporter gene regulated by cAMP response elements was used to identify and determine the relative potencies of human FSH receptor antagonists. See for example, Kelton, C. A., et al. Mol. Cell. Endocrinol. 89:141-151 (1992), Tilly, J. L., et al. Endocrinology 131:799-806(1992), and George, S. E., et al. J. Biomol. Screening 2:235-240 (1997). […]
The treated cells were incubated for 4 hours at 37° C. in a humidified incubator with 5% CO2/95% air. At the end of the incubation period, luciferase activity was measured by chemiluminescence using a commercially available kit (LucScreen, Tropix, Inc., Bedford, Mass.) according to the manufacturer's specifications, except that Buffer 1 and Buffer 2 were mixed together in equal proportion prior to the addition of 100 μl of the combined reagents to each well. Chemiluminescence was detected using a luminometer (EG & G Berthold Microlumat LB 96 P, Wallac, Gaithersburg, Md.) with chemiluminescence measured for 1 sec/well. Background luminescence was measured for each well prior to the addition of the LucScreen reagent. […]

hTSH-R = target: T3, hTSH-R (Homo sapiens, UniProt P16473); test: Selectivity: cAMP accumulation in CHO-25 (hTSH-R) cells; conditions: CHO-25 cells
T3 construct: expressed in transfected cells; host or cells: CHO-25 cells
Experimental: cAMP accumulation assays using CHO-25 (hTSH-R) cells were performed as described above for the CHO-3D2 cells with the following exceptions: CHO-25 cells were plated at a density of 50,000 cells/well (2). All test compounds were evaluated in a dose-response paradigm ranging from 0.01 to 30 μM. Controls and test compounds were evaluated in quadruplicate. Cells were treated with vehicle, hTSH at EC20 (5 nM; hTSH>98% pure, Cortex Biochem, Inc.), or the compounds in the presence or absence of the hTSH at its EC20 concentration. The ability of the compounds to inhibit cAMP-accumulation induced by hTSH was evaluated by RIA.
Along with the test compounds, hTSH was also run as a positive control in the agonist mode using concentrations ranging from 0.01 μM-1000 μM.
cAMP accumulation is expressed as fmol/ml. cAMP accumulation in the agonist mode, or the ability of the compound to inhibit hFSH-, hTSH-, or forskolin-induced cAMP-accumulation in the antagonist mode, was compared to the appropriate negative and positive controls. Data were analyzed by one-way analysis of variance and significant differences between treatments and control determined by Least Significant Difference test.

| apparent EC20, cAMP accumulation (hFSH-R) [ng/mL] | apparent EC50, cAMP accumulation (hFSH-R) [ng/mL] | apparent EC80, cAMP accumulation (hFSH-R) [ng/mL] | EC50, CRE-luciferase (human FSH receptor) [ng/mL] | EC100, CRE-luciferase (human FSH receptor) [ng/mL] | EC20, cAMP accumulation (hTSH-R) [nM] | Substance |
| --- | --- | --- | --- | --- | --- | --- |
| 1.85 | 6.03 | 22.5 | 0.4 | 1000 | – | hFSH: Purified human FSH (>98%) purchased from Cortex Biochem, Inc.; positive control |
| – | – | – | – | – | 5 | hTSH: hTSH >98% pure, Cortex Biochem, Inc.; positive control in selectivity assay |
